Ab-95 light chain CDR variants: yeast mating affinities

Data: MIT Lincoln Laboratory AlphaSeq set, Engelhart et al. 2022, doi:10.1038/s41597-022-01779-4, as distributed in FLAb.

All variants were tested on one target, the spike HR2 peptide PDVDLGDISGINAS (SARS-CoV-2).

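The starting antibody came from a phage panning campaign against this peptide. Variants in AAYL52 differ from the parent at up to three CDR positions; double and triple changes were sampled at random. Affinity was read by AlphaSeq, a pooled yeast mating assay with surface-displayed partners. Binding brings cells together so that they mate, and sequencing counts the barcode pairs among the diploids. A regression on co-assayed BCL2-family reference pairs converts the normalised counts of each replicate to an apparent Kd. Each pool was mated in three replicate cultures.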

Parent scFv Ab-95: VH joined to VL by three GGGGS repeats. Changes lie in the light chain CDRs alone.
VH: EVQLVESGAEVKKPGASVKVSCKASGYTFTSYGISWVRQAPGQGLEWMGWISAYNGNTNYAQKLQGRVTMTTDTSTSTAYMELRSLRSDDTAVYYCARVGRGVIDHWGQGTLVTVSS
VL: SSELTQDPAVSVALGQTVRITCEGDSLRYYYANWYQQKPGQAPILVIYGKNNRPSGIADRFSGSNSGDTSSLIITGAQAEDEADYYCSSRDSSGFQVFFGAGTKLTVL

The parent's light chain CDRs are EGDSLRYYYAN, GKNNRPS, SSRDSSGFQVF; each variant's own CDRs replace them letter for letter. Values are log10 of the apparent Kd in nM; lower means stronger binding. Where no diploid with the target was found in that replicate, the entry reads "n.d.": below detection, most likely a poor binder, though not proof of it. As a blank, each scFv also met three strains without target: over library AAYL52, 28% of these pairings were detected, typically at 3.91 and seldom below 2.90. The control count says in how many pairings with the empty strains this scFv gave a signal, with their mean in brackets. For reference, the parent read 2.31 as the reference entry and 2.25 as a member of this library.

CDR-L1,CDR-L2,CDR-L3,"replicates, log10 nM",signal with controls
EGDSLRYYYAP,TKNNIPS,SSRDSSGFQVF,3.29 / n.d. / 4.10,4 of 9 (3.37)
EGDSLRYYYAN,GKNNTPS,QSRDFSGFQVF,5.36 / n.d. / 4.16,4 of 9 (3.61)
EGDPLRYYYAN,GKNNRPS,SSRDSYGFTVF,2.60 / 2.66 / 2.48,3 of 9 (3.74)
EGDSQRYYYAN,GKNNRPS,SSRDSFPFQVF,4.19 / 5.60 / n.d.,5 of 9 (3.83)
EGDSLRYYLAN,GQNNRPS,FSRDSSGFQVF,3.24 / 3.19 / 3.15,4 of 9 (4.10)
EGDRLRYYYAN,GKNNCPS,SSRDSSGNQVF,3.36 / n.d. / n.d.,2 of 9 (3.40)
QGISLRYYYAN,GKNNRPS,SSRDSSGMQVF,2.61 / 2.70 / 2.71,4 of 9 (3.98)
EGDPLRYYYAM,GKNNRPS,RSRDSSGFQVF,4.83 / n.d. / 3.99,3 of 9 (3.48)
EGDSLRYYYAN,GKNNMPS,SSCDSSAFQVF,n.d. / 4.14 / 3.92,4 of 9 (4.10)
EGPSLRYYYAN,GKNNRNS,SSRDSSGFQPF,n.d. / n.d. / n.d.,1 of 9 (2.43)
EGDSLRYYYAP,GKNNRPS,SSRDSIGFQVT,4.70 / 4.29 / n.d.,2 of 9 (4.07)
EPDSTRYYYAN,GKNNRPS,SSRDSSGFNVF,5.63 / n.d. / n.d.,2 of 9 (3.55)
EGDSLRYYYAN,GKNNFPS,SSRDSIGFVVF,n.d. / 4.47 / n.d.,1 of 9 (5.53)
EMDSLRYYYAN,GKNNRPI,SSRQSSGFQVF,3.98 / 4.33 / 4.46,4 of 9 (3.60)
EGDSLRYYYAN,GKNNRPS,SKQDSSGFQNF,2.44 / 2.11 / 2.28,2 of 9 (4.32)
EGDNLRYYYWN,GKNNRPS,SNRDSSGFQVF,4.92 / n.d. / n.d.,3 of 9 (3.99)
EGDSCRYYYAN,YKNARPS,SSRDSSGFQVF,n.d. / n.d. / n.d.,1 of 9 (5.05)
EGDSLRYNIAN,GKNNRPS,SSRDSSGFQVF,1.44 / 1.29 / 1.08,4 of 9 (4.37)
EGDSLRWDYAN,GKNNRTS,SSRDSSGFQVF,3.62 / 3.25 / 2.27,2 of 9 (3.56)
EGDSLFIYYAN,GENNRPS,SSRDSSGFQVF,3.85 / 5.59 / n.d.,1 of 9 (4.86)
EGDSLRPYYAN,GKNNRPS,SSRDSSGWQVF,3.35 / 2.79 / 4.40,6 of 9 (4.20)
EGDSLRQYYAN,YKNNRPS,SSRDSSGFQVF,3.08 / n.d. / 4.33,1 of 9 (4.92)
ETDVLRYYAAN,GKNNRPS,SSRDSSGFQVF,3.86 / 3.73 / 4.37,2 of 9 (4.52)
EGKSLRNYYAN,GKNNRPN,SSRDSSGFQVF,1.84 / 1.81 / 1.49,2 of 9 (3.91)
EGYSLRYYYAN,GKNNRPS,SSRRSDGFQVF,2.89 / 2.71 / 2.23,2 of 9 (4.16)
EGDSLRYYYAS,GKWNNPS,SSRDSSGFQVF,n.d. / n.d. / n.d.,1 of 9 (2.76)
EGDSCRYTYAN,GKNNRPS,SSRDSSGFQVF,5.34 / 4.24 / n.d.,0 of 9
EGDSLLYYYAK,GKNNRPS,SIRDSSGFQVF,1.82 / 2.10 / 2.32,3 of 9 (3.75)
EGDSLRYYGAN,GKNNRPF,SSRSSSGFQVF,1.59 / 1.52 / 1.22,4 of 9 (4.55)
EGDSLRYYYAN,GKNNHPS,SSRDSTGIQVF,2.21 / 2.92 / 3.84,3 of 9 (4.33)
EQDSLRYYYAN,GKNNRPS,SSRDSSGFCVF,3.28 / 4.50 / n.d.,3 of 9 (3.39)
EGDSLRYYYAY,GKNNRAR,SSRDSSGFQVF,4.05 / n.d. / n.d.,3 of 9 (3.45)
EGDSLRYYYAT,GKNNLPS,SSRDSSMFQVF,n.d. / n.d. / n.d.,3 of 9 (4.00)
EGDKLRYYYAN,GKNNHPV,SSRDSSGFQVF,4.19 / 5.80 / 4.54,5 of 9 (4.43)
EGDSLMYYYRN,GKMNRPS,SSRDSSGFQVF,n.d. / n.d. / 4.28,1 of 9 (3.30)
EGWSLRYYYAL,GKNNRPS,SNRDSSGFQVF,n.d. / n.d. / n.d.,3 of 9 (4.00)
EGDSLRYYYAP,GKNNRPG,SSRDSSNFQVF,3.25 / 5.32 / n.d.,0 of 9
EGDSLRYYYAN,GCNNRPS,SSRCSSGFFVF,n.d. / n.d. / 2.28,2 of 9 (3.88)
EGDILYYYYAN,GKNNRPS,SSRDSSGFGVF,4.26 / n.d. / n.d.,5 of 9 (3.82)

Top 6 of the variants detected in all replicates, tightest first:

CDR-L1,CDR-L2,CDR-L3,"replicates, log10 nM",signal with controls
EGDSLRYNIAN,GKNNRPS,SSRDSSGFQVF,1.44 / 1.29 / 1.08,4 of 9 (4.37)
EGDSLRYYGAN,GKNNRPF,SSRSSSGFQVF,1.59 / 1.52 / 1.22,4 of 9 (4.55)
EGKSLRNYYAN,GKNNRPN,SSRDSSGFQVF,1.84 / 1.81 / 1.49,2 of 9 (3.91)
EGDSLLYYYAK,GKNNRPS,SIRDSSGFQVF,1.82 / 2.10 / 2.32,3 of 9 (3.75)
EGDSLRYYYAN,GKNNRPS,SKQDSSGFQNF,2.44 / 2.11 / 2.28,2 of 9 (4.32)
EGDPLRYYYAN,GKNNRPS,SSRDSYGFTVF,2.60 / 2.66 / 2.48,3 of 9 (3.74)